From patent US7229782B1, “Antibodies specific to multiple beta blockers and methods for their use” (LabOne, Inc., priority 2004, dated 2007)

Test system: antibody of the present invention
Test: Interference from other drugs, homogeneous enzyme immunoassay
Type: binding, rabbit
Details: chemical at 10.0 μg/ml urine; cutoff 5.0 μg Atenolol per ml of urine; tested three times
Description: Samples were checked for turbidity and growth. A homogeneous enzyme immunoassay was carried out on an Olympus AU-5200 analyzer using the following assay parameters:
Reagent 1 is comprised of a titer of 1–500 dilution of an antibody of the present invention, 11.25 mM NAD+, 11.25 mM G6P, 0.1% w/v sodium azide and 100 mM Tris.
Reagent 2 is comprised of a titer of 1–2000 dilution of a G6PDH-beta blocker conjugate, 0.1% w/v sodium azide, and 50 mM Tris.
A homogenous calibrator containing sodium azide was used to calibrate the analyzer prior to each run.
The analytical cutoff for the test was set at 5.0 μg Atenolol per ml of urine. The result was scored as a positive if the signal strength was greater than that produced by 5.0 μg Atenolol per ml of urine.
Interference from other drugs was tested using fifty-five (55) frequently used chemicals and medicines, at concentrations of 10.0 μg/ml urine.
The samples were tested three times, following the procedures used in Example 3. All 55 samples produced a negative test result. Thus, the immunoassay of the present invention is specific to beta blockers.

Compound: CN1CC[C@]23c4c5ccc(O)c4O[C@H]2C(=O)CC[C@H]3[C@H]1C5 [Hydromorphone]
- Beta-Blocker Pos./Neg.: Neg. (scored as a positive if the signal strength was greater than that produced by 5.0 μg Atenolol per ml of urine)
